{
  "sequences": {"note": "The chains behind the UniProt entries cited, without tags or fusion partners. Residues count along the entry.", "UniProt P04190, 31-257": "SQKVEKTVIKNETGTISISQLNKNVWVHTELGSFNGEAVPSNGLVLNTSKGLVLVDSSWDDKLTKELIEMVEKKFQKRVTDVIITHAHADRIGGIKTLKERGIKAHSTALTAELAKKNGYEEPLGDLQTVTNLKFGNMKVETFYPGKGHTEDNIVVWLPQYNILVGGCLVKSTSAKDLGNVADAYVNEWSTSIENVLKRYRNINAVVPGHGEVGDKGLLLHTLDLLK", "UniProt P14488, 30-256": "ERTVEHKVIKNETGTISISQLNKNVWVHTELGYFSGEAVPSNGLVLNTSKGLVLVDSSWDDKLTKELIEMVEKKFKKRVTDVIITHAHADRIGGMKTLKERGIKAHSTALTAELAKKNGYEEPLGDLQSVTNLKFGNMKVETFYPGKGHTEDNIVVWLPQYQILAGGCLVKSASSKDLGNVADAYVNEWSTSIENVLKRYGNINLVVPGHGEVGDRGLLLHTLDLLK"},
  "source": "patent US7456274B2",
  "about": "“Inhibition of metallo-β-lactamase” (priority 2003, dated 2008)",
  "key": {"[1]": {"target": "metallo-β-lactamases (Bacillus cereus enzyme) (Bacillus cereus, UniProt P04190)", "settings": "Mollard et al. (2001); cited from earlier work"}, "[2]": {"target": "B. cereus 5/B/6 metallo-β-lactamase (Bacillus cereus, UniProt P14488)", "type": "biochemical", "settings": "for IC50: pH=7.0, 4 mM cephalosporin C"}},
  "note": "Where two headings read alike, the source gives them in different places.",
  "data": [
    {"substance": "thiomandelic acid", "values": [
      {"measurement": "type of inhibition", "setting": "[1]", "value": "competitive inhibitor"}
    ]},
    {"substance": "thiomandelic acid [S-isomer]", "values": [
      {"measurement": "Ki", "setting": "[1]", "value": 1280, "unit": "nM"}
    ]},
    {"substance": "5′-d(CCAAACTTGG)-3′ [10-mer]", "values": [
      {"measurement": "IC50", "setting": "[2]; assay in the presence of 1 mM ZnSO4, 50 mM MOPS, read-out: IC50 in the presence of Zn2+ ions", "value": 32, "unit": "nM"},
      {"measurement": "IC50", "setting": "[2]; enzyme preincubated 15 min at 30° C. in 50 mM MOPS, read-out: IC50", "value": 1.2, "unit": "nM"},
      {"measurement": "Ki", "setting": "[2]; intercept replot of Lineweaver-Burk data, read-out: Ki′ (dissociation constant for the inhibitor from the enzyme-substrate-inhibitor complex)", "value": 1.5, "unit": "nM"},
      {"measurement": "Ki", "setting": "[2]; slope replot of Lineweaver-Burk data, read-out: Ki (dissociation constant for the inhibitor from the enzyme-inhibitor complex)", "value": 0.31, "unit": "nM"}
    ]}
  ]
}
